This note sets out measurements from patent publication US20040248111A1.

This experiment deals with human thrombin (Homo sapiens, UniProt P00734). Description: thrombin competition assay (determination of the inhibitor constant Ki). The following applies: 20° C., pH 7.4, fluorogenic substrate Tos-GPR-AMC 20 μM, free ligand in solution. Here is the method: The inhibitory properties of these substances were then analysed in a thrombin competition assay (determination of the inhibitor constant Ki).
The thrombin activity was determined at 20° C. and pH 7.4 using the fluorogenic substrate Tos-GPR-AMC (Bachem, 11365, λexc. =370 nm, λem. =450 nm). The reaction mixture contains 20 μM substrate, 0.1-100 μM inhibitor and 100 μM human thrombin in a total volume of 200 μl HBS (10 mM Hepes, 150 mM NaCl, 0.005% Tween 20). After 5 minutes of incubating the enzyme in advance with the inhibitor, the reaction is started by adding substrate and the fluorescence intensity is measured for 10 minutes in intervals of 1 minute. With competitive inhibition, the K value is calculated as follows:
v0=initial speed of the reaction
vi=initial speed of the reaction in the presence of the inhibitor
l=inhibitor concentration
Broadly, the Ki is a measure of affinity in units of concentration, obtained from inhibition or displacement. Low values mean tighter binding, high ones weaker binding. For the compound `N=C(N)Nc1ccc(C[C@H](NS(=O)(=O)c2cccc3ccccc23)C(=O)N2CCCCC2)cc1`, the Ki is 1000 nM. The figure for `CCN(CC)C(=O)C1CCCN(C(=O)[C@H](Cc2ccc(NC(=N)N)cc2)NS(=O)(=O)c2cccc3ccccc23)C1` (stereo partly drawn) is 6000 nM. The value for `CC(C)(C)c1ccc(S(=O)(=O)N[C@@H](Cc2ccc(NC(=N)N)cc2)C(=O)N2CCCCC2)cc1` was 600 nM.
